PubChem BioAssay (Tox21)
Values joined by “and” are separate entries in the source; they are usually repeats but may differ in a detail not shown here. Equal values may be shown once. The list shows a part of the results, in another mix than the full data. Results filed as inconclusive are left out. A structure can be active in one record and inactive in another. Active and inactive are the calls of the source. Unless noted, calls follow the shape of the dose curve; as a rule, active = well fitted curve in the direction sought with a large enough effect in the repeat runs; inconclusive = weak or mixed curves; inactive = no such curve, though single readings can be large; an effect the other way counts as inactive or inconclusive.

The chains behind the UniProt entries cited, without tags or fusion partners.
UniProt P16473, whole entry: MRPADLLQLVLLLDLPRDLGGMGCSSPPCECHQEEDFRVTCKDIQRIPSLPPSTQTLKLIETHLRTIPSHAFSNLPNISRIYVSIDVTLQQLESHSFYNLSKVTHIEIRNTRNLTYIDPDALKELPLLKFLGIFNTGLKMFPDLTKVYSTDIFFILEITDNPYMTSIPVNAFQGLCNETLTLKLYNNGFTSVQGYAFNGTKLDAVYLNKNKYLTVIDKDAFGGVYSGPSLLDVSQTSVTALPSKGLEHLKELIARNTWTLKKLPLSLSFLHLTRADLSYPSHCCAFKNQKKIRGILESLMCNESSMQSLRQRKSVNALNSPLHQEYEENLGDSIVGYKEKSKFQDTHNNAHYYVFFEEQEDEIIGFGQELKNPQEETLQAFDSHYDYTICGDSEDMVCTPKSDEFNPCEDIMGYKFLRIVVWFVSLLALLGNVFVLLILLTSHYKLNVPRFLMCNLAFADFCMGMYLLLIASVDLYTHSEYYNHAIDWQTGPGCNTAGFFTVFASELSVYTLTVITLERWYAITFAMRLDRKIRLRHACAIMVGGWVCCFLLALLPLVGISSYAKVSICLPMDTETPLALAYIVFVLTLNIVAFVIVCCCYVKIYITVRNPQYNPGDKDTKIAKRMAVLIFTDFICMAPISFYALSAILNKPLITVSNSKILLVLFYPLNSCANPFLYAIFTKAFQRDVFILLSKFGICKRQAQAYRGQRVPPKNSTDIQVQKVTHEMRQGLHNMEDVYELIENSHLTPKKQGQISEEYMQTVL

Legend:
[1] = target: Thyrotropin receptor (Homo sapiens) (UniProt P16473); assay: qHTS assay to identify small molecule agonists of the thyroid stimulating hormone receptor (TSHR) signaling pathway (AID 1224843; calls by dose curve; also: nearly all actives have a fitted effect of over 45% in size)
[2] = qHTS assay to identify small molecule agonists of the hypoxia (HIF-1) signaling pathway - cell viability counter screen (AID 1224844; calls by dose curve; also: nearly all actives have a fitted effect of over 50% in size); settings: HRE-bla ME-180 viability, CellTiter-Glo luminescence, 17 h; at 76.8 µM (top of the series) unless noted
In short: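 Same wells as the HIF-1 reporter screen; ME-180 cells carrying HRE-bla, 17 hr treatment at 37C; CellTiter-Glo luminescence read after 30 min at room temperature.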

[3] = qHTS assay to identify small molecule agonists of H2AX (AID 1224845; active = well fitted activation curve with a large enough effect in the signal ratio in the repeat runs, not every such curve was filed as active; the % refers to the signal ratio); settings: CHO-K1 phospho-H2AX Ser139 HTRF, 3 h; at 154 µM (top of the series) unless noted
In short: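 Phospho-H2AX Ser139 measured by HTRF (ex 320 nm; em 665 and 620 nm) after 24 hr antibody incubation. Compounds, 15 concentrations, 0.76% DMSO, were applied to CHO-K1 cells for 3hr at 37C before lysis.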

[4] = qHTS assay to identify small molecule agonists of the hypoxia (HIF-1) signaling pathway (AID 1224846; active = well fitted activation curve with a large enough effect in the signal ratio in the repeat runs, not every such curve was filed as active; the % refers to the signal ratio); settings: HRE-bla ME-180 cells, beta-lactamase ratio, 17 h; at 76.8 µM (top of the series) unless noted
In short: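 In ME-180 cells bearing an HRE-bla construct, 17 h treatment with DMSO-dissolved compounds at 37C was followed by CCF4-AM loading to quantify reporter induction.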

[5] = qHTS assay to identify small molecule agonists of H2AX - cell viability counter screen (AID 1224847; calls by dose curve;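 also: wild-type CHO-K1 cells; top concentration of the series differs between compounds; nearly all actives have a fitted effect of over 30% in size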); settings: CHO-K1 viability, CellTiter-Glo luminescence, 3 h; at 154 µM (top of the series) unless noted
In short: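 Counter-screen for viability: CellTiter-Glo ATP luminescence read after 3 h compound treatment (15-point titration, 0.76% DMSO final) of CHO-K1 cells at 37C, with 30 min room-temperature reagent incubation.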

[6] = qHTS assay to identify small molecule antagonists of the estrogen related receptor (ERR) signaling pathway from Tox21 library (AID 1224848); also: nearly all actives have a fitted effect of over 50% in size; also: potency is read from the fitted curve at half-maximal effect
In short: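 Luciferase luminescence (ONE-Glo, 30 min room temperature) was the read-out. Cells of the NTP-supplied ERR line, 2,000 per well, were given 6 h at 37 C before compound addition in DMSO and 18 h exposure at 37 C.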

[7] = qHTS assay to identify small molecule agonists of the estrogen related receptor (ERR) signaling pathway from Tox21 library (AID 1224849; calls by dose curve; also: nearly all actives have a fitted effect of over 15% in size); settings: ERR reporter cell line, ONE-Glo luciferase, 18 h; at 92.4 µM (top of the series) unless noted
In short: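 Reporter cells (ERR, NTP source) treated with Tox21 10K compounds 18 h, 37 C. Readout: ONE-Glo luminescence, 30 min RT.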

[8] = qHTS RealTime-Glo MT Cell Viability Assay in HepG2 cells - 24 hour (AID 1224867); settings: RealTime-Glo luminescence; at 76.8 µM (top of the series) unless noted; also: nearly all actives have a fitted effect of over 50% in size
In short: (§1)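 Luminescence read-out: viable HepG2 cells reduce a prosubstrate to a NanoLuc substrate, giving a signal proportional to live cell number. Reads taken at 0, 8, 16, 24, 32 and 40 h of compound exposure at 37 C.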

[9] = qHTS RealTime-Glo MT Cell Viability Assay in HEK293 cells - 32 hour (AID 1224868); also: top concentration of the series differs between compounds; nearly all actives have a fitted effect of over 50% in size
In short: (§2)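 Nonlytic real-time viability readout: viable cells convert prosubstrate to NanoLuc substrate, giving luminescence proportional to live cell number. HEK293, 600 cells/well, compound added after 5 h, continuous culture at 37 C.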

[10] = A CellTox Green Cytotoxicity Assay to monitor cytotoxicity in HEK293 cells - 0 hour (AID 1224869); settings: CellTox Green fluorescence; at 76.8 µM (top of the series) unless noted; also: nearly all actives have a fitted effect of over 50% in size
In short: (§3)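 Homogeneous no-lysis format: HEK293 cell suspension mixed with CellTox Green reagent, seeded, incubated 5 h at 37 C/5% CO2, then dosed by pintool with compound in DMSO.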

[11] = qHTS RealTime-Glo MT Cell Viability Assay in HepG2 cells - 40 hour (AID 1224870); settings: RealTime-Glo luminescence; at 76.8 µM (top of the series) unless noted; also: nearly all actives have a fitted effect of over 50% in size
In short: (§4)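 Real-time viability: cells seeded at 600 per well together with NanoLuc and cell-permeant prosubstrate, compounds added after 5 h incubation. Luminescence tracked at 0, 8, 16, 24, 32 and 40 h of exposure.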

[12] = A CellTox Green Cytotoxicity Assay to monitor cytotoxicity in HEK293 cells - 40 hour (AID 1224871); settings: CellTox Green fluorescence; at 76.8 µM (top of the series) unless noted; also: nearly all actives have a fitted effect of over 45% in size
In short: as §3

[13] = qHTS RealTime-Glo MT Cell Viability Assay in HEK293 cells - 16 hour (AID 1224872); settings: RealTime-Glo luminescence; at 76.8 µM (top of the series) unless noted
In short: as §2

[14] = qHTS RealTime-Glo MT Cell Viability Assay in HepG2 cells - 8 hour (AID 1224873); settings: RealTime-Glo luminescence; at 76.8 µM (top of the series) unless noted; also: nearly all actives have a fitted effect of over 55% in size
In short: as §4

[15] = qHTS RealTime-Glo MT Cell Viability Assay in HEK293 cells - 40 hour (AID 1224874); settings: RealTime-Glo luminescence; max response: stronger effect = lower value; also: nearly all actives have a fitted effect of over 50% in size
In short: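 Measured as luminescence from the same continuously cultured HEK293 wells at successive time points (0, 8, 16, 24, 32, 40 h) after compound addition. Reagent present from seeding; dosing at 5 h; incubation 37 C.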

[16] = A CellTox Green Cytotoxicity Assay to monitor cytotoxicity in HEK293 cells - 24 hour (AID 1224875); settings: CellTox Green fluorescence, stronger effect = higher value; at 76.8 µM (top of the series) unless noted; also: nearly all actives have a fitted effect of over 45% in size
In short: as §3

[17] = A CellTox Green Cytotoxicity Assay to monitor cytotoxicity in HepG2 cells - 16 hour (AID 1224876); settings: CellTox Green fluorescence; at 76.8 µM (top of the series); also: nearly all actives have a fitted effect of over 45% in size
In short: (§5)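 Fluorescent DNA-binding dye, 600 HepG2 cells/well, 5 h preincubation then compound in DMSO; same plates read at 0–40 h, 37 C.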

[18] = qHTS RealTime-Glo MT Cell Viability Assay in HepG2 cells - 32 hour (AID 1224877); settings: RealTime-Glo luminescence; at 76.8 µM (top of the series) unless noted; also: nearly all actives have a fitted effect of over 55% in size
In short: as §1

[19] = A CellTox Green Cytotoxicity Assay to monitor cytotoxicity in HepG2 cells - 24 hour (AID 1224878); settings: CellTox Green fluorescence; at 76.8 µM (top of the series); also: nearly all actives have a fitted effect of over 45% in size
In short: as §5

[20] = A CellTox Green Cytotoxicity Assay to monitor cytotoxicity in HepG2 cells - 40 hour (AID 1224879); settings: CellTox Green fluorescence; at 76.8 µM (top of the series) unless noted; also: nearly all actives have a fitted effect of over 40% in size
In short: as §5
% is scaled to controls: 0 for no effect and ±100 for the full control effect.

CCOP(=S)(Cl)OCC
Potency [1]: inactive | activity change, negative = cytotoxicity [2]: inactive: 0.376% | activation (H2AX phosphorylation) [3]: inactive: 0.442% | activation [4]: inactive: -0.0436% | activity change, negative = cytotoxicity [5]: inactive: -0.049% | Potency [6]: inactive | activity change, positive = activation [7]: inactive: -15.2% | activity change, negative = cytotoxicity [8]: inactive: -3.42% | Potency [9]: inactive | cytotoxicity [10]: inactive: 2.07% | activity change, negative = cytotoxic [11]: inactive: -9.37% | cytotoxicity increase [12]: inactive: 11.4% | activity change, negative = cytotoxicity [13]: inactive: 17.1% | viability change, negative = cytotoxic [14]: inactive: 2.81% | max response [15]: inactive: 3.57% | activity change [16]: inactive: 2.75% | cytotoxicity increase [17]: inactive: 3.81% | activity change, negative = cytotoxic [18]: inactive: -12.2% | cytotoxicity [19]: inactive: 4.85% | cytotoxicity increase [20]: inactive: 2.82%

CCC(=O)N(c1ccccc1)C1CCNCC1
Potency [1]: inactive | activity change, negative = cytotoxicity [2]: inactive: 2.72% [at 35.3 µM] | activation (H2AX phosphorylation) [3]: inactive: 1.13% [at 70.9 µM] | activation [4]: inactive: -0.119% [at 35.5 µM] | activity change, negative = cytotoxicity [5]: inactive: 0.761% [at 70.9 µM] | Potency [6]: inactive | activity change, positive = activation [7]: inactive: 2.02% [at 42.5 µM] | activity change, negative = cytotoxicity [8]: inactive: 4.92% [at 35.3 µM] | Potency [9]: inactive | cytotoxicity [10]: inactive: -2.1% [at 35.3 µM] | activity change, negative = cytotoxic [11]: inactive: 1.07% [at 35.3 µM] | cytotoxicity increase [12]: inactive: -16.1% [at 35.3 µM] | activity change, negative = cytotoxicity [13]: inactive: 3.76% [at 35.3 µM] | viability change, negative = cytotoxic [14]: inactive: 9.51% [at 35.3 µM] | max response [15]: inactive: 2.94% | activity change [16]: inactive: -10.1% [at 35.3 µM] | activity change, negative = cytotoxic [18]: inactive: -0.605% [at 35.3 µM] | cytotoxicity increase [20]: inactive: 27% [at 35.3 µM]

CC(C)OP(OC(C)C)OC(C)C
Potency [1]: inactive | activity change, negative = cytotoxicity [2]: inactive: 0.597% | activation (H2AX phosphorylation) [3]: inactive: -2.27% | activation [4]: inactive: -1.08% | activity change, negative = cytotoxicity [5]: inactive: 1.96% | Potency [6]: inactive | activity change, positive = activation [7]: inactive: 0.516% | activity change, negative = cytotoxicity [8]: inactive: 0.0636% | Potency [9]: inactive | cytotoxicity [10]: inactive: 0.236% | activity change, negative = cytotoxic [11]: inactive: -1.45% | cytotoxicity increase [12]: inactive: 4.12% | activity change, negative = cytotoxicity [13]: inactive: -4.09% | viability change, negative = cytotoxic [14]: inactive: 1.37% | max response [15]: inactive: -4.15% | activity change [16]: inactive: 10.2% | cytotoxicity increase [17]: inactive: -0.808% | activity change, negative = cytotoxic [18]: inactive: -0.091% | cytotoxicity [19]: inactive: 0.786% | cytotoxicity increase [20]: inactive: 1.12%

O=[N+]([O-])c1ccccc1[N+](=O)[O-]
Potency [1]: inactive | activation (H2AX phosphorylation) [3]: inactive: -1.71% | activation [4]: inactive: -1.12% and inactive: -0.697% | activity change, negative = cytotoxicity [5]: inactive: -7.3% and inactive: 1.48% | Potency [6]: active: 70.3 µM and inactive | activity change, positive = activation [7]: inactive: -32.1% and inactive: -17.3% | activity change, negative = cytotoxicity [8]: inactive: 1.83% and inactive: 0.832% | Potency [9]: inactive | cytotoxicity [10]: inactive: -0.153% and inactive: 0.438% | activity change, negative = cytotoxic [11]: inactive: 0.704% and inactive: 0.625% | cytotoxicity increase [12]: inactive: 0.569% and inactive: 12.7% | activity change, negative = cytotoxicity [13]: inactive: 5.23% and inactive: 15.9% | viability change, negative = cytotoxic [14]: inactive: -7% and inactive: -4.12% | max response [15]: inactive: 0.164% | activity change [16]: inactive: 0.0474% and inactive: 7.81% | cytotoxicity increase [17]: inactive: -3.7% and inactive: -4.83% | activity change, negative = cytotoxic [18]: inactive: 0.0246% and inactive: 0.876% | cytotoxicity [19]: inactive: 0.486% and inactive: -7.3% | cytotoxicity increase [20]: inactive: 0.301% and inactive: -11.1%
